Results reported in PubChem BioAssay AID796 (Columbia University Molecular Screening Center, 2007).
The entries are a selection whose mix differs from that of the whole data set. Some of these compounds have results that are not shown, active ones among them. The source made the active and inactive calls.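 How the source made its calls: active means inhibition above about 30% together with a positive call from visual inspection of the well image (limit read from the data); inconclusive means inhibition above a set limit but visual check negative; inactive means inhibition not above a set limit, visual check negative.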

Test: inhibitors of IL-1B driven NFkB p65 nuclear import, primary screen, imaging, HUVEC, IL-1B stimulus, high-content imaging (AID 796);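 further: nuclear over cytoplasmic p65 intensity ratio measured by imaging; 0% = IL-1B stimulated DMSO wells and 100% = unstimulated DMSO wells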
Details: HUVEC IL-1B NFkB p65 nuclear translocation imaging; at 2 µM; hits give high values

| SMILES | inhibition |
| --- | --- |
| CC(C)N1C(=O)CC2(CCN(CCOC(=O)C(O)(c3ccccc3)c3ccccc3)CC2)C1=O | inactive: 9.4% |
| O=C(OC1CN2CCC1CC2)C(CO)(c1ccccc1)c1ccccc1 (stereo not drawn) | inactive: -7.3% |
| CN(C)c1cccc(C(=O)NCC2(N(C)C)CCCCC2)c1 | inactive: -3.8% |
